Apparent affinities of Ab-14 variants for a coronavirus HR2 peptide

Antigen: PDVDLGDISGINAS, a 14-residue peptide of the SARS-CoV-2 spike HR2 region.

Ab-14 is the parent antibody, in scFv form: VH, then three GGGGS repeats, then VL. The light chain is unchanged in all variants.
VH: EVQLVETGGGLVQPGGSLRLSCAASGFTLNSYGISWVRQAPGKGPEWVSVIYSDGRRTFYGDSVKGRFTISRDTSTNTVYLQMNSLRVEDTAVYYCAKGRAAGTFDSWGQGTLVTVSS
VL: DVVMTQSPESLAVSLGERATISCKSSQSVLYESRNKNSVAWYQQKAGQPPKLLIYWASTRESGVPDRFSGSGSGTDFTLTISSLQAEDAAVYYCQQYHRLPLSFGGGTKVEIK

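Phage display of a naive human antibody library on the peptide gave the parent. Library AAYL49 holds single substitutions and randomly drawn double and triple substitutions in the CDRs. AlphaSeq pools MATa yeast showing the antibodies with MATalpha yeast showing the peptide. The frequency of each diploid, read from paired DNA barcodes, reflects how well the two displayed proteins bind. The ratio of observed to expected reads was calibrated, replicate by replicate, on BCL2-family standards whose Kd was known from biolayer interferometry. There are three technical replicates.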

Positions count from residue 1 of the parent VH; G33D puts D in place of G. Scale: log10 of Kd in nM, estimated from mating counts; low values are strong binders. "nd" marks a missing value. The strain was present, yet no cells mated with the target were sequenced in that replicate, which points to weak or no binding.

changes,"log10 Kd, replicates",signal with controls
G33D/R56F/G99M,nd nd nd,0/9
N30I/Y60V/G103L,nd nd nd,0/9
D54P/V64A/G99C,nd nd 3.73,0/9
G26F/Y52K/A102G,nd nd 5.31,1/9 (3.00)
L29C/I34R,nd nd nd,1/9 (3.49)
I51K/Y52V/G99Y,nd nd nd,0/9
Y52F/G55I/A101N,nd nd nd,2/9 (4.42)
F27A/R57L/D106E,nd nd nd,0/9
Y52C/S63R,5.42 3.03 3.63,7/9 (3.84)
N30A/F105V,nd 4.48 nd,2/9 (3.89)
D54V/G61K/S63F,5.96 nd nd,3/9 (4.32)
T28F/I51Q/R56Y,nd nd nd,0/9
I51S/Y52I/A101I,nd 4.75 nd,0/9
F27S/G55D/F59I,nd nd nd,0/9
Y32I,3.40 3.72 4.01,2/9 (2.91)
S53K/T58A/S63Y,nd 4.23 4.25,4/9 (4.02)
T28G/V64A,1.94 1.91 1.95,1/9 (4.08)
D62C/D106N,4.52 3.51 3.51,3/9 (4.96)
Y32P/G99E/S107P,nd nd nd,0/9
T28I/S31Y/T104L,nd nd nd,2/9 (4.11)
D54A/F59G/G61Q,nd nd 4.10,3/9 (3.57)
L29E/G99N/R100W,5.40 nd nd,1/9 (3.43)
I34G/V50I/R56Y,nd nd nd,1/9 (3.79)
F27C/I34K/K65P,5.27 4.76 5.23,5/9 (4.47)
I51W,nd 2.81 5.79,1/9 (3.37)
G55V/Y60F/D106C,nd 2.95 4.24,1/9 (3.34)
V50T,4.48 3.57 5.31,2/9 (4.17)
T28H/G99Y/G103K,nd nd nd,0/9
F27K/Y60D/T104L,nd nd nd,2/9 (4.22)
I51Q/R56K/A102F,nd 4.00 2.37,0/9
R57V/A101R/S107R,5.04 4.20 4.39,8/9 (4.47)
F27K/I51P/F105W,5.05 nd 4.52,2/9 (3.84)
I51S/A101S/D106P,3.82 nd nd,4/9 (4.28)
G26C/T28Y/R100A,nd nd nd,1/9 (3.49)
G33N/S63M/K65P,nd nd 4.30,7/9 (3.88)
T28G/K65S/A102D,2.10 2.15 2.36,3/9 (4.44)
F27D/N30C/I34M,3.62 4.64 4.56,1/9 (3.13)
L29E/S31C/G33W,nd nd 3.33,3/9 (4.57)
S35N/I51Q/S107M,2.38 nd nd,0/9
S35D/Y52V/R57A,5.07 4.21 4.95,6/9 (4.90)
N30G/Y60M/A101V,nd nd nd,0/9
F27D/Y52W/A101M,4.38 nd nd,3/9 (3.92)
T28H/Y52L/T58K,3.31 nd 5.31,0/9
G99E/G103Q/D106W,1.64 1.62 2.10,5/9 (4.18)
G26P/Y32D/G99H,4.05 2.83 nd,1/9 (2.91)
T28H/R56K/T104S,0.18 0.35 0.28,3/9 (4.10)

From the list, the first 7 with no signal in any replicate:

| changes | log10 Kd, replicates | signal with controls |
|---|---|---|
| G33D/R56F/G99M | nd nd nd | 0/9 |
| N30I/Y60V/G103L | nd nd nd | 0/9 |
| L29C/I34R | nd nd nd | 1/9 (3.49) |
| I51K/Y52V/G99Y | nd nd nd | 0/9 |
| Y52F/G55I/A101N | nd nd nd | 2/9 (4.42) |
| F27A/R57L/D106E | nd nd nd | 0/9 |
| T28F/I51Q/R56Y | nd nd nd | 0/9 |

Empty control strains, which show no peptide, gave a signal in 15% of pairings with library AAYL49; the median was 4.06 and 95% of these signals were weaker than 2.83. No background was subtracted. The control count says in how many pairings with the empty strains this scFv gave a signal, with their mean in brackets.

Values reported by Engelhart et al. 2022, doi:10.1038/s41597-022-01779-4 (FLAb copy).